B1: RAC-alpha serine/threonine-protein kinase (Homo sapiens), P31749 (parent)
chain: MSDVAIVKEGWLHKRGEYIKTWRPRYFLLKNDGTFIGYKERPQDVDQREAPLNNFSVAQCQLMKTERPRPNTFIIRCLQWTTVIERTFHVETPEEREEWTTAIQTVADGLKKQEEEEMDFRSGSPSDNSGAEEMEVSLAKPKHRVTMNEFEYLKLLGKGTFGKVILVKEKATGRYYAMKILKKEVIVAKDEVAHTLTENRVLQNSRHPFLTALKYSFQTHDRLCFVMEYANGGELFFHLSRERVFSEDRARFYGAEIVSALDYLHSEKNVVYRDLKLENLMLDKDGHIKITDFGLCKEGIKDGATMKTFCGTPEYLAPEVLEDNDYGRAVDWWGLGVVMYEMMCGRLPFYNQDHEKLFELILMEEIRFPRTLGPEAKSLLSGLLKKDPKQRLGGGSEDAKEIMQHRFFAGIVWQHVYEKKLSPPFKPQVTSETDTRYFDEEFTAQMITITPPDQDDSMECVDSERRPHFPQFSYSASGTA
partner: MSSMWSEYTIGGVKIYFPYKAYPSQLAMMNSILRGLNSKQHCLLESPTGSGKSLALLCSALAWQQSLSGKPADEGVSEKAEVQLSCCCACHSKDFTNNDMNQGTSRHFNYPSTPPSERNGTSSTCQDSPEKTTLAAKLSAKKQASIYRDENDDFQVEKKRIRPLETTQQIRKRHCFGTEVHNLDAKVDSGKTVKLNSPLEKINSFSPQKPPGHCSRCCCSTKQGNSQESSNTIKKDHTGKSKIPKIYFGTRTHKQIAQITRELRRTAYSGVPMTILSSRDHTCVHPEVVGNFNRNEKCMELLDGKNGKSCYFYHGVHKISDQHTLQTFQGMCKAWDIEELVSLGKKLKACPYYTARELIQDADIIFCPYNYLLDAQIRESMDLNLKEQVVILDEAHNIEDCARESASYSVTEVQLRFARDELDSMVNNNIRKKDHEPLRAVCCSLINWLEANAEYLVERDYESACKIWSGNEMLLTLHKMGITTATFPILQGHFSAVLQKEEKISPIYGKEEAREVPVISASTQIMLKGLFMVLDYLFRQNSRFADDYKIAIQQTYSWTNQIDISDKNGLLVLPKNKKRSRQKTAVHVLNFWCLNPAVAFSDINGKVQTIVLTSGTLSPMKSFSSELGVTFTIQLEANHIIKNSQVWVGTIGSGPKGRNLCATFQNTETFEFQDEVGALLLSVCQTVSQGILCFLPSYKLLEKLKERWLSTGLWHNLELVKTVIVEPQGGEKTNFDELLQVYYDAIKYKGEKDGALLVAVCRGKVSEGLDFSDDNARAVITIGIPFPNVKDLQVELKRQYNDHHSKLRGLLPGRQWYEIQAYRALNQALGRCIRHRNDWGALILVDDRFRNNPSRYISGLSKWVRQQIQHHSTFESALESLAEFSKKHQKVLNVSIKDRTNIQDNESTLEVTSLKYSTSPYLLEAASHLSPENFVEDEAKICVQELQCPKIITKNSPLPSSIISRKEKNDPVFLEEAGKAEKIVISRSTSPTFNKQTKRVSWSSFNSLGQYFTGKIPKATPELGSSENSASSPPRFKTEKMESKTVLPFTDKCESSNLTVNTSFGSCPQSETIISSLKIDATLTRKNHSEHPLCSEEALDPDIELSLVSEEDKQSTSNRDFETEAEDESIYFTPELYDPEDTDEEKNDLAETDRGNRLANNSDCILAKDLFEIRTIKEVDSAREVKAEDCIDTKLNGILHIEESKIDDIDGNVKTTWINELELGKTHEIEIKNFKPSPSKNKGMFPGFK
B2: RAC-alpha serine/threonine-protein kinase (Homo sapiens), P31749 (parent)
chain: B1 chain
partner: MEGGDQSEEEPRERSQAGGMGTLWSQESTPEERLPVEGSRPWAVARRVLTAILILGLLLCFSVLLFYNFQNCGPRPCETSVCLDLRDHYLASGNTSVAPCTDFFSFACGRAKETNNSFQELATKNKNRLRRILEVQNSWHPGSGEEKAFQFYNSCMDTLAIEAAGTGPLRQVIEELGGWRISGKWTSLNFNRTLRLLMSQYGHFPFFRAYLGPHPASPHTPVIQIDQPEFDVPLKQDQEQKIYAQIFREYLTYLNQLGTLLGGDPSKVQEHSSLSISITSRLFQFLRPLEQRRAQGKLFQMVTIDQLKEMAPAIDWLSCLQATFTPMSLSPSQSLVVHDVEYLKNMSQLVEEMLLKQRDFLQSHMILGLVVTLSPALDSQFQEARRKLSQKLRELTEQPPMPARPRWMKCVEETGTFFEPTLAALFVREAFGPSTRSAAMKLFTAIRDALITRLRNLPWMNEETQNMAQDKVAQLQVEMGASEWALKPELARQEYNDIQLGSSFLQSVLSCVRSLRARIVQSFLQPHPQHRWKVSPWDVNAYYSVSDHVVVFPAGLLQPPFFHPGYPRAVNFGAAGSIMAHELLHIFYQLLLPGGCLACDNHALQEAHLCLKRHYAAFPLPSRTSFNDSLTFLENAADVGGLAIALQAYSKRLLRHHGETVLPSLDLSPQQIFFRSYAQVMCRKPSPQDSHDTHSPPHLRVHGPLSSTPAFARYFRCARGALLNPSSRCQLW
B3: RAC-alpha serine/threonine-protein kinase (Homo sapiens), P31749 (parent)
chain: B1 chain
partner: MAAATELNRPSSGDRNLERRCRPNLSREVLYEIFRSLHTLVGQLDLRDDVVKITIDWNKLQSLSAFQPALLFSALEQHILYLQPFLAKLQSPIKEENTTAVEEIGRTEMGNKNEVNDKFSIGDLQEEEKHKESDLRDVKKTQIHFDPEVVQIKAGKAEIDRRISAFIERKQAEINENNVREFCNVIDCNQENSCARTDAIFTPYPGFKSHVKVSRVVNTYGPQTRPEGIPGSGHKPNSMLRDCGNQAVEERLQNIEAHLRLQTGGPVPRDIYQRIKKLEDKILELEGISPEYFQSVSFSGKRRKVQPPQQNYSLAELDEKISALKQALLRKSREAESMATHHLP
B4: RAC-alpha serine/threonine-protein kinase (Homo sapiens), P31749 (parent)
chain: B1 chain
partner: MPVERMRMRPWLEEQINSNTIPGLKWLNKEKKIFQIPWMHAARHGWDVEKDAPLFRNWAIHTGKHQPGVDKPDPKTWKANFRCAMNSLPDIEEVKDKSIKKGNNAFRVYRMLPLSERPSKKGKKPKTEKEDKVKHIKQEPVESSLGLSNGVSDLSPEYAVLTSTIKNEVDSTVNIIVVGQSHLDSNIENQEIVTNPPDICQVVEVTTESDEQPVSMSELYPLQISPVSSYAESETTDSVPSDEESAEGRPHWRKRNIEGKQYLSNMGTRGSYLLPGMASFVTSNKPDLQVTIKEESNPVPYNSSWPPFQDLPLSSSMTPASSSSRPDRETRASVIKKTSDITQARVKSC
B5: RAC-alpha serine/threonine-protein kinase (Homo sapiens), P31749 (parent)
chain: B1 chain
partner: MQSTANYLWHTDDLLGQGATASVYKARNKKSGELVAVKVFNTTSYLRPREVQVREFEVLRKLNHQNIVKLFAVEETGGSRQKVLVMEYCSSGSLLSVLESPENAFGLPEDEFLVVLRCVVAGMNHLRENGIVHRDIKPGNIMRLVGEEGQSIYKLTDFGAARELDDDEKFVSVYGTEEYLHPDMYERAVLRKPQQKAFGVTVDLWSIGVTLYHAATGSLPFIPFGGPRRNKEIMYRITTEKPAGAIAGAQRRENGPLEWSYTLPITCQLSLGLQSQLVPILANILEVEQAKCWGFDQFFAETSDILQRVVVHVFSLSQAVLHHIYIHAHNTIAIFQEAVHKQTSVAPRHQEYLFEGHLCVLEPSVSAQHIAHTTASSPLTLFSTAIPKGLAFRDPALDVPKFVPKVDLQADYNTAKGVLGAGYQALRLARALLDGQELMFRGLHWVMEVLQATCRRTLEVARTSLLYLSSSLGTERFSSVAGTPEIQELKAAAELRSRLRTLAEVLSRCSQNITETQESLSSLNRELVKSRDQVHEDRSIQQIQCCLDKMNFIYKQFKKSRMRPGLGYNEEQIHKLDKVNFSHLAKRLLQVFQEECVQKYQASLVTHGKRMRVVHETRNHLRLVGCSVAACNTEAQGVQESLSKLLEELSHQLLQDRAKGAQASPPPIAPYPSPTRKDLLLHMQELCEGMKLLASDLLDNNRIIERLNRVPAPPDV

Variants of: B1
Conditions: with fancj_human BRIP1, Q9BX63

effect of a mutation on the interaction	Variant
causing an interaction	E17K

Variants of: B2
Conditions: with kell_human KEL

effect of a mutation on the interaction	Variant
with no effect	E17K

Variants of: B3
Conditions: with mbip1_human MBIP

effect of a mutation on the interaction	Variant
with no effect	E17K

Variants of: B4
Conditions: with irf2_human IRF2, P14316

effect of a mutation on the interaction	Variant
with no effect	E17K

Variants of: B5
Conditions: with ikke_human IKBKE

effect of a mutation on the interaction	Variant
with no effect	E17K

— IntAct's records for PubMed 35512704
